Experimental data taken from patent US20210113493A1, “KETAMINE FOR THE TREATMENT OF M[…] SYMPTOMS” (priority 2016, published 2021).

What was measured:
[1] = system: subclinical menstrually related symptoms; settings: 50 mg lozenges, ½ to 2 once to three times daily
[2] = system: premenstrual dysphoric disorder (PMDD); test: Intranasal S-(+)-ketamine in subjects with PMDD; assay type: in vivo; settings: 30 mg per dose, 1 to 4 doses daily
Description: Enantiomerically pure S-(+)-ketamine hydrochloride (eq. 150 mg/mL) and a penetration enhancer (10 mg/mL) (e.g., tauroursodeoxycholic acid) are mixed with water and the pH of the resulting mixture is adjusted with 1N NaOH to approximately pH 4.51. Subjects suffering from premenstrual dysphoric disorder (PMDD) are provided with a nasal spraying configured to deliver a dose of 0.2 ml per spray to a nostril of the subject (30 mg per dose). The subjects can administer from 1 to 4 intranasal doses daily upon the appearance of symptoms. The doses can be administered at night so as not to interfere with the functionality of the subject.

| SMILES | anxiety, anger, and/or dysphoria [1] | anxiety, anger, and/or dysphoria [2] |
| --- | --- | --- |
| N[C@@]1(c2ccccc2Cl)CCC[C@@H](O)C1=O | experience a reduction in anxiety, anger, and/or dysphoria |  |
| CN[C@]1(c2ccccc2Cl)CCCCC1=O [S-(+)-ketamine] |  | experience a reduction in anxiety, anger, and/or dysphoria |
